Test results: PubChem BioAssay AID1508624 (National Center for Advancing Translational Sciences (NCATS), 2021)
Values joined by “and” are separate entries in the source; they are usually repeats but may differ in a detail not shown here. Identical values can stand only once. This is a selection; strong and weak results do not stand in their true shares. Results filed as inconclusive are left out. Active and inactive are the calls of the source. Calls follow the shape of the dose curve; as a rule, active = well fitted activation curve with a large enough effect; inconclusive = small, poorly fitted or top-dose-only effect, or another doubt; inactive = no such curve, though single readings can be large or run the other way.

Assay: Primary qHTS for Identification of Small Molecule Activators of Huntingtin-Antisense Promoter Activity; also: nearly all actives have a fitted effect of over 55% in size
Conditions: HEK293 HTT-AS promoter firefly luciferase reporter, 24 h, percent change from vehicle, -100% = no light; at 57.5 µM (top of the series) unless noted
Description: Assay Provider: Russell L. Margolis M.D.
Department Neurology, Johns Hopkins University School of Medicine, Baltimore, MD
Huntington's Disease (HD) is a neurodegenerative disorder caused by a CAG repeat expansion in exon 1 of huntingtin (HTT). While there are currently no disease-modifying treatments for HD, recent efforts have focused on development of nucleotide-based therapeutics to lower HTT expression. As an alternative to siRNA or oligonucleotide methods, we hypothesized that suppression of HTT expression might be accomplished by small molecules that either (1) directly decrease HTT expression by suppressing HTT promoter activity or (2) indirectly decrease HTT expression by increasing the promoter activity of HTT-AS, the gene antisense to HTT that appears to inhibit expression of HTT.
We developed and employed a high throughput screen for modifiers of HTT and HTT-AS promoter activity using luminescent reporter HEK293 cells; of the 52,041 compounds tested, we identified 898 replicable hits. We used a rigorous stepwise approach to assess compound toxicity and the capacity of the compounds to specifically lower huntingtin protein in 5 different cell lines, including HEK293 cells, HD lymphoblastoid cells, mouse primary neurons, HD iPSCs differentiated into cortical-like neurons, and HD hESCs. We found no compounds which were able to lower huntingtin without lowering cell viability in all assays, though the potential efficacy of a few compounds at non-toxic doses could not be excluded.
SEQUENCE No. (1, 2, 3, etc.); […] […]
7; Detection; Luminescence; FLuc […]
1; High-throughput screening, measuring luminescence from a Hek293 luciferase reporter, was performed in 1,536 well white-walled tissue-culture treated plates. […]
4; Cells were then incubated for 24 hours at 37 degrees C prior to luminescence measurements.
5; In all cases, luminescence was measured using the Dual-Glo Luciferase Reporter Assay System (Promega) following the manufacturer's instructions. […]
7; Luminescence signal was obtained using the PerkinElmer ViewLux plate reader. […]

| Compound | activity change, positive = activation |
| --- | --- |
| CN(CCCl)CCCl | inactive: -20.3% and inactive: -18% |
| CCC(=O)N(c1ccccc1)C1(COC)CCN(CCc2cccs2)CC1 | inactive: -9.88% [at 116 µM] |
| CCC(=O)N(c1ccccc1)C1(COC)CCN(CCn2nnn(CC)c2=O)CC1 | inactive: -17.2% [at 116 µM] |
